# According to PubChem BioAssay AID720504 (National Center for Advancing Translational Sciences (NCATS), 2013):
# Sequences of proteins named here, by UniProt entry; tags and fusion partners are left off.
# UniProt P53350, whole entry: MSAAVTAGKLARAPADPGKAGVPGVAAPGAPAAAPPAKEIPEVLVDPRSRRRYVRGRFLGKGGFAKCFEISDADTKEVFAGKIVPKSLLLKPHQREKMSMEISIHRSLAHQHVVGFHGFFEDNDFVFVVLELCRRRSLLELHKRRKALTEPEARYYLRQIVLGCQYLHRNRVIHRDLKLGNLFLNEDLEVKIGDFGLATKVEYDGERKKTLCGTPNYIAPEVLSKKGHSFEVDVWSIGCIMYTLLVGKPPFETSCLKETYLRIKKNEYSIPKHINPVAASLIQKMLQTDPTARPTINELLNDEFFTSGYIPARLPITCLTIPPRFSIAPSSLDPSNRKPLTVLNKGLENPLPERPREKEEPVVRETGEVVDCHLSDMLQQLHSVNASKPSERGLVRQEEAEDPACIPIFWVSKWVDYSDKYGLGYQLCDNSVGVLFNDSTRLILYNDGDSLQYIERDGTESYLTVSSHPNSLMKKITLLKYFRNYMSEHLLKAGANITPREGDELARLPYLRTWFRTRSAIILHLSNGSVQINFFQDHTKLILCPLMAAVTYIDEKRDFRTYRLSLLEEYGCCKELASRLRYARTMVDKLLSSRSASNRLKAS
# Only a part is listed here, and it is no random draw. Records with an inconclusive call do not appear. Activity calls are given as the source filed them. Calls follow the shape of the dose curve; as a rule, active = well fitted inhibition curve with a large enough effect; inconclusive = small, poorly fitted or top-dose-only effect; inactive = flat fitted curve, though single readings scatter.
# Target: Serine/threonine-protein kinase PLK1 (Homo sapiens) (UniProt P53350)
# Assay: qHTS for Inhibitors of PLK1-PDB (polo-like kinase 1 - polo-box domain): Primary Screen; also: nearly all actives have a fitted effect of over 65% in size; as to max response, negative = inhibition: series mostly up to about 57 µM
# Conditions: Plk1 PBD binding of FITC phosphopeptide, fluorescence polarization
# % is scaled to controls: 0 for no effect and ±100 for the full control effect; potency is read from the fitted curve at half-maximal effect.
Compound,"max response, negative = inhibition",Potency
COc1ccccc1OP(C)(=O)Nc1c(C)n(C)n(-c2ccccc2)c1=O (stereo unspecified),inactive: 1.92%,
O=C(OCCCN1CCCC1)C(O)(c1ccccc1)C1CCCCC1 (stereo unspecified),inactive: -15.9%,
CP(=O)(Oc1ccccc1)N1CCOC1=O (stereo unspecified),inactive: -9.06%,
CCc1ccc(OP(C)(=O)Nc2cccnc2)cc1 (stereo unspecified),inactive: -3.01%,
CCN(CC)CC(O)COC(=O)C(O)(c1ccccc1)C1CCCCC1 (stereo unspecified),inactive: -11.3%,
COc1ccc(OP(C)(=O)Nc2ccc(Br)cc2)cc1 (stereo unspecified),inactive: 7.15%,
CN(C)C(=O)c1c([N+](=O)[O-])cc([N+](=O)[O-])cc1[N+](=O)[O-],inactive: -14.8%,
CC(C)(C)c1ccc(OP(C)(=O)O)cc1,inactive: 1.62%,
COc1ccccc1OP(C)(=O)Nc1ccccc1Br (stereo unspecified),inactive: 6.45%,
CP(=O)(Nc1ccc(Cl)cc1)Oc1ccc(F)cc1 (stereo unspecified),inactive: 1.96%,
CCOC(=O)c1ccc(NP(C)(=O)Oc2ccc(Cl)cc2)cc1 (stereo unspecified),inactive: -8.37%,
CP(=O)(OC12CC3CC(CC(C3)C1)C2)OC12CC3CC(CC(C3)C1)C2,inactive: -3.68%,
Nc1ccc2c(ccc3cccnc32)n1.O=[N+]([O-])c1cc([N+](=O)[O-])c(O)c([N+](=O)[O-])c1,inactive: 0.229%,
COc1ccccc1OP(C)(=O)Nc1ccc(C)c(C)c1 (stereo unspecified),inactive: -6.96%,
COc1ccc(OP(C)(=O)Nc2ccccc2Br)cc1 (stereo unspecified),inactive: 0.589%,
Cc1cc(C)cc(OP(C)(=O)Nc2cccc(C(F)(F)F)c2)c1 (stereo unspecified),inactive: -24.1%,
CP(=O)(OCCOc1ccccc1)OCCOc1ccccc1,inactive: -12.2%,
CP(=O)(Nc1ccc(Cl)cc1Cl)Oc1ccccc1 (stereo unspecified),inactive: -20.8%,
CCCCCCCCCCCCCCCC1C[N+](C)(C)CCOP(C)(=O)O1 (stereo unspecified),inactive: 0%,
COc1ccc(OP(C)(=O)Nc2ccccn2)cc1 (stereo unspecified),inactive: -13.4%,
CN(C)CCOC(=O)C(O)(c1ccccc1)C1CCCC1 (stereo unspecified),inactive: -2.33%,
COc1ccccc1OP(C)(=O)Nc1ccc(Br)cc1 (stereo unspecified),inactive: 1.78%,

Compound,"max response, negative = inhibition",Potency
CP(=O)(Nc1ccccn1)Oc1ccccc1 (stereo unspecified),inactive: -7.29%,
COc1ccccc1OP(C)(=O)Nc1ccc(C)cc1C (stereo unspecified),inactive: -7.39%,
CCc1ccc(OP(C)(=O)O)cc1,inactive: -6.23%,
O=[N+]([O-])c1cc([N+](=O)[O-])c(Nc2ccccn2)c([N+](=O)[O-])c1,inactive: -9.85%,
Cc1c(NP(C)(=O)Oc2ccc(C(C)C)cc2)c(=O)n(-c2ccccc2)n1C (stereo unspecified),inactive: 1.79%,
CP(=O)(Nc1ccccc1F)Oc1ccccc1 (stereo unspecified),inactive: -6.98%,
CC(C)c1ccc(OP(C)(=O)Nc2ccc(SC(F)(F)F)cc2)cc1 (stereo unspecified),inactive: 4.22%,
O=C(OCCN1CCN(CCOCc2ccccc2)CC1)C(O)(c1ccccc1)c1ccccc1,inactive: -2.35%,
CCOC(=O)c1ccc(NP(C)(=O)Oc2ccc(F)cc2)cc1 (stereo unspecified),inactive: 5.51%,
COc1ccc(OP(C)(=O)Nc2ccc(SC(F)(F)F)cc2)cc1 (stereo unspecified),inactive: -5.49%,
CP(=O)(Nc1ccccc1)Oc1ccc(F)cc1 (stereo unspecified),inactive: 0.0425%,
CCCCCOc1ccc(NP(C)(=O)Oc2ccc(Cl)cc2Cl)cc1 (stereo unspecified),inactive: -3.49%,
Cc1c([N+](=O)[O-])cc([N+](=O)[O-])c(Br)c1[N+](=O)[O-],,active: 21.2 µM
CCN(CC)CCCOC(=O)C(O)(c1ccccc1)C1CCCCC1 (stereo unspecified),inactive: -2.65%,
CN(C)CCOC(=O)C(O)(c1ccccc1)C1CCCCC1 (stereo unspecified),inactive: -3.04%,
COc1ccc(NP(C)(=O)Oc2ccccc2OC)cc1 (stereo unspecified),,active: 26.7 µM
COc1ccc(OP(C)(=O)Nc2cccc(Br)c2)cc1 (stereo unspecified),inactive: -2.51%,
Cc1c(C(c2ccc3c(c2)OCO3)c2c(C)n(C)n(-c3ccccc3)c2=O)c(=O)n(-c2ccccc2)n1C.O=[N+]([O-])c1cc([N+](=O)[O-])c(O)c([N+](=O)[O-])c1,inactive: 4.07%,
O=[N+]([O-])c1ccc(OP2(=O)COCCO2)cc1 (stereo unspecified),inactive: -9.77%,
Cc1cc(-c2cccc3ccccc23)c(C)cn1.O=[N+]([O-])c1cc([N+](=O)[O-])c(O)c([N+](=O)[O-])c1,inactive: -2.64%,
CCOP(C)(=S)SCC(=O)NC(C)(CC)C(=O)O (stereo unspecified),inactive: -0.379%,
CP(=O)(Nc1ccc(SC(F)(F)F)cc1)Oc1ccc(F)cc1 (stereo unspecified),inactive: 4.29%,

Compound,"max response, negative = inhibition",Potency
Cc1ccccc1NP(C)(=O)Nc1ccccc1C,inactive: 0.857%,
CP(=O)(Nc1ccc2c(c1)OCCO2)Oc1ccccc1 (stereo unspecified),inactive: -4.77%,
CN(Cc1cccnc1)C(=O)COc1ccc(Cl)c(Cl)c1.O=[N+]([O-])c1cc([N+](=O)[O-])c(O)c([N+](=O)[O-])c1,inactive: -1.66%,
O=[N+]([O-])c1cc([N+](=O)[O-])c(-n2nnc3ccccc32)c([N+](=O)[O-])c1,,active: 11.9 µM
O=[N+]([O-])c1cc([N+](=O)[O-])c(-c2cnn(-c3ccccc3)c2)c([N+](=O)[O-])c1,inactive: 5.74%,
O=[N+]([O-])c1cc([N+](=O)[O-])c(Nc2nnnn2CCO)c([N+](=O)[O-])c1,inactive: -18.3%,
CC1=C2N=C(C=C3N=C(C(C)=C4[N-][C@@](C)([C@@H]5N=C1[C@](C)(CCC(=O)NC[C@@H](C)OP(=O)([O-])O[C@H]1[C@@H](O)[C@@H](n6cnc7cc(C)c(C)cc76)O[C@@H]1CO)[C@H]5CC(N)=O)[C@@](C)(CC(N)=O)[C@@H]4CCC(N)=O)[C@@](C)(CC(N)=O)[C@@H]3CCC(N)=O)C(C)(C)[C@@H]2CCC(N)=O.[C-]#N.[Co+3],inactive: -20.4%,
CP(=O)(Nc1ccc(SC(F)(F)F)cc1)Oc1ccccc1 (stereo unspecified),inactive: -5.9%,
CCCOc1ccc(NP(C)(=O)Oc2ccc(Cl)cc2)cc1 (stereo unspecified),inactive: -5.2%,
COc1ccccc1OP(C)(=O)Nc1c(C)cccc1C (stereo unspecified),inactive: -14.6%,
CN1CCCCC1COC(=O)C1(O)c2ccccc2CCc2ccccc21 (stereo unspecified),inactive: -8.14%,
CC1=NCCc2c1[nH]c1ccccc21.O=[N+]([O-])c1cc([N+](=O)[O-])c(O)c([N+](=O)[O-])c1,inactive: -5.28%,
CCOC(=O)c1ccc(NP(C)(=O)Oc2cc(C)cc(C)c2)cc1 (stereo unspecified),inactive: -6.88%,
Cc1cc(C)cc(OP(C)(=O)Nc2ccc(C)cc2C)c1 (stereo unspecified),inactive: -7.5%,
COc1ccccc1OP(C)(=O)Nc1cccc(Br)c1 (stereo unspecified),inactive: -16.9%,
Cc1ccc(C)c(NP(C)(=O)Oc2ccccc2)c1 (stereo unspecified),inactive: 1.07%,
CP(=O)(Nc1cccc(Br)c1)Oc1ccccc1 (stereo unspecified),inactive: -3.33%,
Cc1cc(C)cc(OP(C)(=O)Nc2ccccn2)c1 (stereo unspecified),inactive: 0.314%,
CCN(CC)CCCOC(=O)C(O)(c1ccccc1)c1ccccc1,inactive: -4.41%,
COc1ccccc1-c1ccccn1.O=[N+]([O-])c1cc([N+](=O)[O-])c(O)c([N+](=O)[O-])c1,inactive: -14.5%,
CC(C)(C)c1ccc(OP(C)(=O)Nc2ccc(SC(F)(F)F)cc2)cc1 (stereo unspecified),inactive: -1.88%,
Cc1cccc(C)c1OP(C)(N)=O (stereo unspecified),inactive: 9.36%,

Compound,"max response, negative = inhibition",Potency
O=[N+]([O-])c1cc([N+](=O)[O-])c(Nc2cccnc2)c([N+](=O)[O-])c1,inactive: -25.3%,
Cc1cc(C)cc(OP(C)(N)=O)c1 (stereo unspecified),inactive: -4.14%,
COc1ccccc1OP(C)(=O)Nc1cc(Cl)ccc1C (stereo unspecified),inactive: 6.77%,
COc1ccc(OP(C)(=O)Nc2cccc(F)c2)cc1 (stereo unspecified),inactive: -2.27%,
COc1ccccc1OP(C)(=O)Nc1ccc(C)cc1 (stereo unspecified),inactive: 1.47%,
Cc1ccc(NP(C)(=O)Oc2ccccc2)c(C)c1 (stereo unspecified),inactive: -16.2%,
CCOC(=O)c1ccc(NP(C)(=O)Oc2ccccc2)cc1 (stereo unspecified),inactive: 3.11%,
CP(=O)(Nc1ccccc1Br)Oc1ccccc1 (stereo unspecified),inactive: -9.29%,
COc1ccccc1OP(C)(=O)Nc1ccccc1 (stereo unspecified),inactive: -11.2%,
CP(=S)(Nn1cnnc1)Oc1ccccc1 (stereo unspecified),inactive: -17%,
CCc1ccc(OP(C)(=O)N2CCN(c3ccc([N+](=O)[O-])cc3)CC2)cc1 (stereo unspecified),inactive: -12.7%,
CP(=O)(NC(=O)Nc1ccccc1)Oc1ccccc1 (stereo unspecified),inactive: -5.41%,
Cc1cc(C)cc(OP(C)(=O)Nc2ccc(SC(F)(F)F)cc2)c1 (stereo unspecified),inactive: -18.3%,
Cc1cccc(C)c1OP(C)(=O)Nc1ccc(SC(F)(F)F)cc1 (stereo unspecified),inactive: -7.58%,
CP(=O)(Nc1ccc(SC(F)(F)F)cc1)Oc1ccc(Cl)cc1 (stereo unspecified),inactive: -9.11%,
CP(=O)(Oc1ccccc1)OC(c1ccccc1)C(F)(F)F (stereo unspecified),inactive: 0.224%,
CP(=O)(Nc1ccccn1)Oc1ccc(Cl)cc1 (stereo unspecified),inactive: -0.749%,
CCOC(=O)c1ccc(NP(C)(=O)Oc2ccc(OC)cc2)cc1 (stereo unspecified),inactive: 4.01%,
O=[N+]([O-])c1cc([N+](=O)[O-])c(O)c([N+](=O)[O-])c1.c1ccc(Oc2ccncc2)cc1,inactive: -8.76%,
CCOP(C)(=S)SCC(=O)NC(C)C(=O)O (stereo unspecified),inactive: -3.5%,
